What all share (test): RealTime-Glo MT cell viability assay
What all share (type): cell-based, Human

For assay [1], the system named is NLF.
In assay [2] the test system is NB1.
Assay [3] deals with NBL-07-0317 patient-derived neuroblastoma cells.
The subject of assay [4] is SK-N-AS.
The test system of assay [5] is NBL27-0218A patient-derived neuroblastoma cells.

With `COC(=O)c1[nH]c2ccc(Cl)cc2c1NC(=O)CN1CCN(Cc2ccccc2)CC1`, the IC50 was 8.3 µM in assay [1] (24 hours); 6.2 µM in assay [1] (48 hours); 5.9 µM in assay [1] (72 hours); 9.2 µM in assay [2] (NB1, 24 hours); 5.3 µM in assay [2] (NB1, 48 hours); 4.6 µM in assay [2] (NB1, 72 hours). The IC50 in assay [3] (NBL-07-0317, 24 hours) was 14.2 µM; in assay [3] (NBL-07-0317, 48 hours), 15.4 µM; in assay [3] (NBL-07-0317, 72 hours) it was 15.7 µM; in assay [4] (24 hours) it was 3.5 µM; in assay [4] (48 hours), 5.2 µM; in assay [4] (72 hours), 4.7 µM. For the same compound, the IC50 in assay [5] (24 hours) came out at 5.9 µM; in assay [5] (48 hours) it was 7 µM; in assay [5] (72 hours) it was 8.5 µM.

These data come from PMC10681007, “Targeted Degradation of XIAP is Sufficient and Specific to Induce Apoptosis in MYCN-overexpressing High-risk Neuroblastoma” (Cancer Research Communications, 2023).
